Data: patent US20240050727A1, “DEVICES FOR FORMING IN SITU MICRONEEDLES AND METHODS THEREOF” (University of Connecticut, priority 2022, published 2024)

Conditions: VEGF encapsulated in hybrid PEGDA/GelMA hydrogel

vascular endothelial growth factor [VEGF]
release of biomolecules from microneedle biomaterial: sustained long-term release
